Bioassay records deposited in PubChem by National Center for Advancing Translational Sciences (NCATS).
Only some compounds are listed: those with a hit (about 0.92% of all), similar ones and a draw of the others.
Giardia kill – Giardia lamblia killing; Giardia lamblia trophozoite viability; activity change, % at 7.66 µM, hits read low; 340,000 compounds, 0.15% hits; in the data active = activity change below about -80%; inconclusive = between about -30% and that limit;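 also: parasites exposed to compound for two days anaerobically before the ATP read; % is scaled to controls: 0 for no effect and ±100 for the full control effect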
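Trophozoite viability was measured as ATP-dependent luminescence, read 15-30 min after reagent addition. Before that, parasites at 100 cells/well were exposed to compounds for 48 h, anaerobically, at 37 deg C.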
uPA generation – inhibitors of cell surface uPA generation | cell surface uPA generation assay, qHTS | Potency, µM (titrated, usually from 38.3 µM), inactives show top-dose activity change, negative = inhibition, actives largely listed as inhibitors | 330,000 compounds, 0.31% hits; active = well fitted inhibition curve with a large enough effect; inconclusive = small, poorly fitted or top-dose-only effect; inactive = no such curve, though single readings can be large or run the other way; tested in mouse RAW 264.7 cells; also: potency is read from the fitted curve at half-maximal effect; % is scaled to controls: 0 for no effect and ±100 for the full control effect; nearly all actives have a fitted effect of over 55% in size
Coupling enz – coupling enzyme interference in Giardia aldolase counter-screen | coupling enzyme system counterscreen, AmpLite Red fluorescence | activity change, negative = inhibition, % at 58.2 µM, hits read low | 290,000 compounds, 0.67% hits | AID 2472; in the data active = activity change below about -30%; also: % is scaled to controls: 0 for no effect and ±100 for the full control effect
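Activity here indicates interference with the coupling reaction, not aldolase inhibition. Compounds at 57.5 uM final met coupling enzymes for 10 min at RT; substrate and AmpLite Red detection followed, with a 525/598 nm fluorescence read after 20 min.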
B2AR arrestin – recruits beta-arrestin to the human beta2-adrenergic receptor; P07550; beta-arrestin recruitment to beta2AR, cell-based reporter; Potency, µM (titrated, usually from 46.1 µM), for the others: at the top dose activation, actives largely listed as activators; 330,000 compounds, 0.02% hits;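 also: potency is read from the fitted curve at half-maximal effect; 0% = DMSO controls and full agonism = EC100 isoproterenol or metaproterenol; nearly all actives have a fitted effect of over 65% in size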
miR-21 reporter – raises the signal of a miR-21 reporter; Potency, µM (doses to about 38.3 µM), inactives show top-dose reporter change, positive = more light; HeLa miR-21 FLuc reporter, luciferase, 48 h; AID 2288; 340,000 tested, under 10 active; active = well fitted rising curve with a large enough effect; inconclusive = small, poorly fitted or top-dose-only effect; inactive = no such curve, though single readings can be large or run the other way;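 further: % of control where 0% means no effect; miR-21 action dims this reporter so a rising signal means less miR-21 action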
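HeLa miR-21-FLuc reporter line, endogenous miR-21; 2000 cells/well in DMEM/10% FBS; compound titration up to ~40uM final, 48 h, 37 degree Celsius; luciferase detection reagent, 15 min lysis, CCD luminescence.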
GALK inhibitor – galactokinase (human) inhibition; P51570; Purified GALK, Kinase-Glo residual ATP luminescence; Potency, µM (top dose mostly 57.5 µM), without a hit: top-dose activity change, negative = inhibition, usual class: inhibitors; 270,000 compounds, 0.007% hits; AID 1868; also: potency is read from the fitted curve at half-maximal effect; % is scaled to controls: 0 for no effect and ±100 for the full control effect
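GALK at 5 nM final was combined with compound, 35 uM ATP and 100 uM galactose in HEPES pH8.0 with MgCl2 and DTT. The reaction ran one hour at room temperature before luminescent ATP detection.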
Numbers without * were called inactive; ? = inconclusive; · = no result given. Unless noted, calls follow the shape of the dose curve; as a rule, active = well fitted curve in the direction sought with a large enough effect; inconclusive = small, poorly fitted or top-dose-only effect, or another doubt; inactive = no such curve, though single readings can be large; an effect the other way counts as inactive or inconclusive.

no.	compound	Giardia kill	GALK inhibitor	uPA generation
1	O=C(NCCCn1ccnc1)c1noc2c1CCc1ccccc1-2	15	1%	·
2	Cc1ccc(O)c(N)c1	-11	·	2.8µM*
3	Cc1onc(C(=O)N2CCN(C(c3ccccc3)c3ccccc3)CC2)c1[N+](=O)[O-]	6	·	10µM*
4	O=C1OC2(c3cc(I)c(O)c(I)c3Oc3c2cc(I)c(O)c3I)c2c(Cl)c(Cl)c(Cl)c(Cl)c21	·	·	·
5	COc1ccc2c(c1)N(C)/C(=C/c1cccc[n+]1C)S2	8	2%	7.9µM*
6	CCN(CC)CCNC(=O)c1ccc2c(c1NCCO)C(=O)c1ccccc1C2=O	-12	10%	?
7	COc1cc(O)ccc1-c1nc2cc(C)ccn2c1Nc1ccccc1C	·	·	·
8	CCOC(=O)c1ccc(-c2c(-c3ccccc3OC)sc3cc4c(cc23)OCO4)cc1F	-30	·	5.6µM*
9	CCC(=O)Nc1ccc(C2C(=O)c3ccccc3C2=O)cc1	-82*	8%	-8%
10	CCCCC(=O)Nc1ccc(C2C(=O)c3ccccc3C2=O)cc1	?	·	-2%
11	Cc1cc(C)n2c(Nc3ccccc3)c(-c3ccccc3)nc2n1	·	·	·
12	CCc1ccc(Sc2cc(C(=O)NCCCN3CCC(C)CC3)c3ccccc3n2)cc1	·	·	·

no.	B2AR arrestin	miR-21 reporter	Coupling enz
1	-1%	-24%	-44*
2	-1%	·	·
3	-2%	-1%	7
4	·	·	2
5	1%	?	-2
6	-1%	?	-31*
7	·	7%	·
8	0%	·	·
9	2%	-11%	-1
10	·	·	·
11	·	0%	·
12	·	19%	·

Continued, starting with the last 3 of the part before.
no.	compound	Giardia kill	GALK inhibitor	uPA generation
10	CCCCC(=O)Nc1ccc(C2C(=O)c3ccccc3C2=O)cc1	?	·	-2%
11	Cc1cc(C)n2c(Nc3ccccc3)c(-c3ccccc3)nc2n1	·	·	·
12	CCc1ccc(Sc2cc(C(=O)NCCCN3CCC(C)CC3)c3ccccc3n2)cc1	·	·	·
13	Cc1ccc(CNc2ncnc3[nH]ncc23)o1	6	·	·
14	COc1ccccc1N1CCN(C(=O)CSc2nc(-c3ccc(C(C)C)cc3)no2)CC1	·	·	·
15	Cc1ccc(C#CC[N+]2(CC#Cc3ccc(C)cc3)CCCCC2)cc1	-11	-5%	7.1µM*
16	C=CCCC/C=C(/C)C(OCc1ccc(OC)cc1)C(CC/C=C(\C)C(N)=O)OC (stereo unspecified)	·	·	·
17	CC(C)c1cc[n+](-c2nc([O-])sc2C=O)cc1	-2	1%	4%
18	CCc1cc[n+](-c2nc([O-])sc2C=O)cc1	5	0%	-1%
19	CCC(=O)Nc1nnc(S(=O)(=O)N(C)Cc2ccc(Cl)cc2)s1	·	·	·
20	CC(C)CCCC(C)CCCC(C)CCCC(C)C(=O)O (stereo unspecified)	·	·	·
21	O=c1ccn(-c2cccc(C(F)(F)F)c2)nc1-c1ccn(-c2ccccc2F)n1	0	2%	-4%
22	COc1ccc(-n2ccc(-c3nn(-c4cccc(C(F)(F)F)c4)ccc3=O)n2)cc1	-2	-1%	-4%
23	COc1ccc(-n2ncc(C(=O)N3CCN(C4CCCCC4)CC3)c2C2CCN(C(=O)OC(C)(C)C)CC2)cc1	·	·	·
24	N#CC1=C(N)Oc2c(ccc3cccnc23)C1c1ccccc1 (stereo unspecified)	6	-4%	1.3µM*

no.	B2AR arrestin	miR-21 reporter	Coupling enz
10	·	·	·
11	·	0%	·
12	·	19%	·
13	·	·	·
14	·	12%	·
15	-1%	?	0
16	·	·	2
17	4%	-2%	-40*
18	0%	-3%	-38*
19	·	0%	·
20	·	·	11
21	1%	20%	-43*
22	-1%	-6%	-7
23	·	2%	·
24	0%	27%	-6

Some values from above:
Value of compound 19 in miR-21 reporter: 0%
Value of compound 23 in miR-21 reporter: 2%
Value of compound 13 in Giardia kill: 6

Other compounds
no.	compound	Giardia kill	GALK inhibitor	uPA generation
25	O=C(c1ccc([N+](=O)[O-])o1)N1CCN(c2nc3c(Cl)cccc3s2)CC1	?	·	-9%
26	O=C(c1ccc([N+](=O)[O-])o1)N1CCN(c2nc3ccc(F)cc3s2)CC1	-89*	·	-5%
27	COc1cccc2sc(N3CCN(C(=O)c4ccc([N+](=O)[O-])o4)CC3)nc12	-87*	·	-10%
28	O=C(Cn1c(-c2cccs2)cc2ccccc21)NCCCN1CCN(c2cccc(Cl)c2)CC1	·	·	·
29	N#C/C(=C\c1c(Cl)cccc1Cl)c1nc2ccccc2o1	-1	-1%	-9%
30	COc1cc(/C=N/Nc2nncn2N)ccc1OCc1c(C)no[n+]1[O-]	-10	1%	11µM*
31	Cc1ccccc1C(=O)Nc1nnc(S(=O)(=O)N(C)Cc2ccc(Cl)cc2)s1	·	·	·
32	Cc1cccc(N/N=C/c2ccc(O)c(O)c2O)c1	7	5%	-7%
33	COc1cccc(N/N=C/c2cccc(Br)c2O)c1	16	3%	1%
34	Oc1ccc(/C=N/NC(=S)Nc2cccnc2)c(O)c1O	10	-2%	-3%
35	CC[C@]12CCCN3CCc4c(n(c5ccccc45)C(=O)C1)[C@@H]32	2	·	3.2µM*
36	Cc1cc(C(=O)COc2cccnc2[N+](=O)[O-])c(C)n1-c1ccccc1	-89*	0%	1%

no.	B2AR arrestin	miR-21 reporter	Coupling enz
25	0%	·	·
26	-1%	·	·
27	0%	·	·
28	·	16%	·
29	23µM*	-9%	0
30	0%	2%	-38*
31	·	2%	·
32	0%	-7%	-69*
33	-1%	-53%	3
34	0%	0%	-63*
35	0%	·	·
36	-1%	-16%	0

New compounds follow.
no.	compound	Giardia kill	GALK inhibitor	uPA generation
37	CCN1CCN(C(=O)c2ccc(-c3nc4ccccc4s3)s2)CC1	6	-1%	?
38	O=C(c1ccc(-c2nc3ccccc3s2)s1)N1CCOCC1	-84*	18%	?
39	O=C(Nc1nc2ccccc2s1)NC1CCCCC1	-7	-2%	7.9µM*
40	O=C(NC1CC1)c1ccc(-c2nc3ccccc3s2)s1	-100*	2%	-13%
41	O=S1(=O)N=C(Nc2cccc(C(F)(F)F)c2)c2ccccc21	·	·	·
42	CC(=O)Nc1ccc2nc3ccccc3nc2c1	5	4%	?
43	O=C(Nc1ccc2nc3ccccc3nc2c1)c1ccc(Br)cc1	22	0%	3%
44	O=C(Nc1ccc2cccnc2c1)c1ccc(Br)cc1	-21	-1%	10%
45	CCOc1ccccc1OCCCC(=O)Nc1ccc(OC)nc1	3	2%	5%
46	CCN(CC)CCn1c2ccccc2c2nc3ccccc3nc21	-7	·	10µM*
47	COc1cccc(O)c1O	·	·	·
48	COc1ccccc1O	4	·	6%

no.	B2AR arrestin	miR-21 reporter	Coupling enz
37	-1%	-44%	-1
38	0%	?	-1
39	0%	-35%	3
40	0%	25%	3
41	·	6%	·
42	0%	-38%	-33*
43	-1%	-12%	-39*
44	0%	-43%	-3
45	0%	-12%	-32*
46	0%	-1%	1
47	·	·	-33*
48	0%	2%	0

Marked active in B2AR arrestin, among the entries above:
item	Structure	GALK inhibitor	uPA generation	B2AR arrestin	miR-21 reporter
29	N#C/C(=C\c1c(Cl)cccc1Cl)c1nc2ccccc2o1	-1%	-9%	23µM*	-9%

New compounds follow:
no.	compound	Giardia kill	GALK inhibitor	uPA generation
49	CCN(CCCNC(=O)c1nn(-c2ccc(C)cc2)c(=O)c2c1c1ccccc1n2C)c1ccccc1	·	·	·
50	S=C(Nc1ccc2cn[nH]c2c1)Nc1ccccc1Cl	4	2%	2%
51	S=C(Nc1ccc2cn[nH]c2c1)Nc1ccc(Cl)cc1Cl	-21	-1%	-3%
52	CCOC(=O)c1cccc(NC(=O)CC2C(=O)N(c3ccc(F)cc3)C(=O)N2C(C)C)c1 (stereo unspecified)	·	·	·
53	CN(C)C=Nc1ccc2nc3c(cc2c1)[nH]c1ccccc13	-89*	·	?
54	COC1=CC(=O)C(C(=O)c2ccccc2)=CC1=O	·	·	·
55	Cc1c(C(=O)N2CCCC2)oc2c1-c1[nH]ncc1CC2	2	·	4%

no.	B2AR arrestin	miR-21 reporter	Coupling enz
49	·	-2%	·
50	-1%	-42%	-47*
51	0%	-19%	-10
52	·	-4%	·
53	1%	-37%	-11
54	·	·	-67*
55	0%	-2%	-49*
